One compound from PubChem BioAssay AID1117356 (Cheminformatics & Chemogenomics Research Group (CCRG), …, 2015) can be followed below.

Protein sequences, listed by entry. Tags and fused reporters are not part of them.
UniProt P36888, whole entry, looked up: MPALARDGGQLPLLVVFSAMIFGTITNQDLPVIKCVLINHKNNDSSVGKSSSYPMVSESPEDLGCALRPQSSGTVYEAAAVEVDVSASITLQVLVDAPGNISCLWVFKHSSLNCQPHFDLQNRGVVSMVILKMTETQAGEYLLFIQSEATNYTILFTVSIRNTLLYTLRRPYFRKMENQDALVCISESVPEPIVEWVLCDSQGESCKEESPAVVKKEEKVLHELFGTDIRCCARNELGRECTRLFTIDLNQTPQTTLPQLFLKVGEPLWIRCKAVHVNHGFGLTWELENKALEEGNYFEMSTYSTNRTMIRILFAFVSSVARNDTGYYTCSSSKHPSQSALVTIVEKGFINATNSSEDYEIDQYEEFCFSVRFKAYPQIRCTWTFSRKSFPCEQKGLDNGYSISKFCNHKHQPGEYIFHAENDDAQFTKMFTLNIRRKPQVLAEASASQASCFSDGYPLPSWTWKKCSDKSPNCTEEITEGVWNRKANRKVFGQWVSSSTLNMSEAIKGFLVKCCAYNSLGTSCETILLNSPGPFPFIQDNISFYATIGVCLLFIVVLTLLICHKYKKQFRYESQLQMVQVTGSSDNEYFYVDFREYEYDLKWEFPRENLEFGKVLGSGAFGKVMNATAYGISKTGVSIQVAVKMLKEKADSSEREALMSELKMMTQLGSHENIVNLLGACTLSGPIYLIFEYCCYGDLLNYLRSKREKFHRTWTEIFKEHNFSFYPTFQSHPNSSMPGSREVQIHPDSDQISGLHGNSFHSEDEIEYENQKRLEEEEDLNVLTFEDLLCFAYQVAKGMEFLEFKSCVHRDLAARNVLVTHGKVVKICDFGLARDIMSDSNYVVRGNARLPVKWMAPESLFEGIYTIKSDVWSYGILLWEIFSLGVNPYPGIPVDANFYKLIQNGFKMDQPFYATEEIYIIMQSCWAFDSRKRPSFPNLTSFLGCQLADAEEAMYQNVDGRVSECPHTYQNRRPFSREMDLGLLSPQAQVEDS

The assay addresses Receptor-type tyrosine-protein kinase FLT3 (Homo sapiens) (UniProt P36888). In words: inhibitors of Homo sapiens fms-like tyrosine kinase 3, primary HTS, cell-free, LANCE Ultra TR-FRET, NPC library from NCATS (AID 1117356). The following applies: recombinant FLT3, LANCE Ultra TR-FRET kinase assay, stronger effect = higher value.

A word on the inhibition: it is the relative decrease from the control value, in per cent.

Active and inactive are the calls of the source. How the calls were made is not given here.

For `CN(CCCl)CCCl`, the inhibition (at 20 µM) is inactive: -20.2%; the inhibition (inhibition, at 0.2 µM) was -38.5%; the inhibition (inhibition, at 2 µM) is -9.42%.
